Reference: patent US6737397B1, “Control of cancer growth through the interaction of [MET5]-enkephalin and the zeta receptor” (The Penn State Research Foundation, priority 1996, dated 2004)
Where two headings read alike, the source gives them in different places.

Columns and labels:
ζ-opioid receptor [1] = target: T1, ζ-opioid receptor (Homo sapiens, UniProt Q9NZT2); test: Competition for binding of [3H][Met5]enkephalin (4.0 nM) in nuclear homogenates of HT-29 human colon tumors; set-up: from tissue; host or cells: HT-29 human colon tumor xenografts grown in athymic nude mice; nuclear (P1) and other subcellular fractions; conditions: for Ki: read-out: KI nM
T1 sequence (Q9NZT2 1-677): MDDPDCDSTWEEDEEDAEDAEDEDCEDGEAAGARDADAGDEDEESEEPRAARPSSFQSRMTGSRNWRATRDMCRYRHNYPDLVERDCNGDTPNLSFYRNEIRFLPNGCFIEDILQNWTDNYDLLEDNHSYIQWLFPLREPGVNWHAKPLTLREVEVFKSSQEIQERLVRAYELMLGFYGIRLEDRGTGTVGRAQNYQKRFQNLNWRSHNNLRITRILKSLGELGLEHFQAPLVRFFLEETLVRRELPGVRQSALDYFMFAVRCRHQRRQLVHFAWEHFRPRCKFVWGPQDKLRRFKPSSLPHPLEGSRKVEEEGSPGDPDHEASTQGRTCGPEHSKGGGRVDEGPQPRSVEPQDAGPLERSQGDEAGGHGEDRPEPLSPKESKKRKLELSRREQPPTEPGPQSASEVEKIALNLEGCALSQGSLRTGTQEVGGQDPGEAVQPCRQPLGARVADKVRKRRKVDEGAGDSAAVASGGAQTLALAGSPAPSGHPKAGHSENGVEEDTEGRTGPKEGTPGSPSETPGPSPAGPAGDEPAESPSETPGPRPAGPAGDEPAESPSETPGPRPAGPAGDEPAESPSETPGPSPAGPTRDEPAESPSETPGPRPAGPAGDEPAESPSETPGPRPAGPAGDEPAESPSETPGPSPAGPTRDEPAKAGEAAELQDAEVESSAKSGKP

[2] = target: T2, [Met5]-enkephalin receptor (Homo sapiens, UniProt Q9NZT2); test: [3H]-[Met5]-enkephalin binding on HT-29 cells after 48 h exposure to OGF or NTX (receptor regulation); conditions: read-out: Kd of [3H]-[Met5]-enkephalin; HT-29 cells after 48 h of exposure to the treatment
T2 construct: endogenous in cells; host or cells: HT-29 human colon cancer cells, log phase, nuclear pellet (P1)
T2 sequence (Q9NZT2 1-677): T1 sequence (Q9NZT2 1-677)

ζ-opioid receptor [3] = target: T1, ζ-opioid receptor
ζ opioid receptor = ζ opioid receptor (Homo sapiens, UniProt Q9NZT2)
ζ-opioid receptor [4] = target: T1, ζ-opioid receptor; conditions: read-out: binding affinity (Kd); nuclear preparation of cultured HT-29 cells, one-site model
ζ-opioid receptor [5] = target: T1, ζ-opioid receptor; remark: listed apart in the source

Substance: [Leu^5]-enkephalin [[Leu^5]enkephalin]
- IC50 (ζ-opioid receptor [1]): 75 ± 5 nM
- Ki (ζ-opioid receptor [1]): 57.7 ± 3.9 nM

Substance: [Met^5]-enkephalin
- Kd [2]: 1.9 ± 1.1 nM
- Kd (ζ-opioid receptor [3]; read-out: equilibrium dissociation constant Kd, P1 nuclear homogenates of HT-29 tumors, 150 min, 22° C., pH 7.4): 15.4 nM
- Kd (ζ opioid receptor; tumors from mice treated with 5 mg/kg OGF three times daily): 7.1 ± 1.3 nM
- IC50 (ζ-opioid receptor [1]): 16.5 ± 1.5 nM
- Ki (ζ-opioid receptor [1]): 12.7 ± 1.2 nM

Substance: [^3H]-[Met^5]-enkephalin
- Kd (ζ-opioid receptor [4]): 8.9 nM
- Kd (ζ-opioid receptor [3]; subcellular fractionation, P1 nuclear fraction): 6.6 ± 0.2 nM
- Kd (ζ-opioid receptor [5]; Patient 1, splenic flexure adenocarcinoma): 15.7 ± 6.7 nM
- Kd (ζ-opioid receptor [5]; Patient 2, sigmoid adenocarcinoma): 6.7 ± 0.5 nM
- Kd (ζ-opioid receptor [5]; read-out: equilibrium dissociation constant (Kd), data from both patients averaged): 11.2 ± 3.6 nM
- Kd (ζ opioid receptor; read-out: binding affinity (Kd), tumor tissue from control animals, one-site model): 10 ± 1.7 nM

Substance: dynorphin A 1-8 [Dynorphin A-(1-8)]
- IC50 (ζ-opioid receptor [1]): 375 ± 25 nM
- Ki (ζ-opioid receptor [1]): 289 ± 20 nM
